Assay results: publication PMC6591005 (Immunity, 2019)

Target: GI.1 Virus like particles (Norovirus (strain Human/NoV/United …, UniProt Q83884))
Experiment: ELISA; EIA: plates coated with VLP at 0.25 μg/ml in PBS for 4 h, blocked in 5% dry milk in PBS-0.05% Tween-20; two-fold serial dilutions of mAb at 37°C; anti-human IgG-HRP; less than 0.2 OD at 2 μg/ml scored as negative
Conditions: both partners purified

B1: A1227 (recombinant IgG1) (antibody, V domains shown)
VH: QVQLVQSGGGMVQPGGSLSLSCAASGFTLSNYAMTWVRQAPGKGLEWVSSIGGSGGTTYYADSVKGRFTISRDSSMNTLYLQMSNLRAGDTAVYYCAKDKTRTLRLGYSGMDVWGQGTTVTVSS
VL: DIRLTQSPSSLSASVGDRVTITCRASQSISSYLNWYQQKPGKAPDLLIYGASSLQSGVPSRFSGSGSGTDFTLTISSLQPEDFGNYYCQQSFSTPRTFGQGTKVELK
Q: Does B1 bind?
A: Result: binds
